Values of other authors as cited in publication PMC11266601.

Tests used:
Rac1 (Homo sapiens) = Rac1 (Homo sapiens) (UniProt P63000); conditions: cited from earlier work
p67phox (Homo sapiens) = p67phox (Homo sapiens) (UniProt P19878); conditions: cited from earlier work

Row | Substance | Kd (Rac1 (Homo sapiens)) | Kd (p67phox (Homo sapiens))
1 | MARTXVc RID RID (from UniProt Q9KS12) | 4 µM | –
2 | Rac1 (from UniProt P63000) | – | 1.7 µM
